Structures can show the parent of a compound that is named as a salt.

Chains of the proteins cited; added tags and fusions are not shown. Residues count along the entry.
UniProt P08588, whole entry: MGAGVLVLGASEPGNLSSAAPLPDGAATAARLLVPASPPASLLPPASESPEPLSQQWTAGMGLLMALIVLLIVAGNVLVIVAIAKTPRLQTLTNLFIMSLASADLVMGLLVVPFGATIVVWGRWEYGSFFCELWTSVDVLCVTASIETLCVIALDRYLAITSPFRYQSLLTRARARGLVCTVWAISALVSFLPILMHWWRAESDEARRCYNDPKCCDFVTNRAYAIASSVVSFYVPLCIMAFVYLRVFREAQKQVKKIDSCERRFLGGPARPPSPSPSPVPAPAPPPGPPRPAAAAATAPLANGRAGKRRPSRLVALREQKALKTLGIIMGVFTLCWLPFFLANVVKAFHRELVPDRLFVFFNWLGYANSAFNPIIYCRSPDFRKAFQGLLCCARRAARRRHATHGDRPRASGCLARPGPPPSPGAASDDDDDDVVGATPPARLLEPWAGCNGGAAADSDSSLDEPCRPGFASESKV
UniProt P14416, 1-414 isoform P14416-2: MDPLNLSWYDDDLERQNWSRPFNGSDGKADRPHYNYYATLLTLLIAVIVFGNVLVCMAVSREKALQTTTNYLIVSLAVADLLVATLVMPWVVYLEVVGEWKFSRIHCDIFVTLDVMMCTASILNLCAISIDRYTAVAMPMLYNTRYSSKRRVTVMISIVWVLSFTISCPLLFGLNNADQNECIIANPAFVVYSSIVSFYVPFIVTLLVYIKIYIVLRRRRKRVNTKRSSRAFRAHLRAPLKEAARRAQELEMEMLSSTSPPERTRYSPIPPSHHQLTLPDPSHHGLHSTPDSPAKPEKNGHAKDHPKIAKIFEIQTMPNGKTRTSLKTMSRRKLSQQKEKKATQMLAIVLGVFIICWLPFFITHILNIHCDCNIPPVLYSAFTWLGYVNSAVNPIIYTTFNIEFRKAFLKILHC
UniProt P07550, whole entry: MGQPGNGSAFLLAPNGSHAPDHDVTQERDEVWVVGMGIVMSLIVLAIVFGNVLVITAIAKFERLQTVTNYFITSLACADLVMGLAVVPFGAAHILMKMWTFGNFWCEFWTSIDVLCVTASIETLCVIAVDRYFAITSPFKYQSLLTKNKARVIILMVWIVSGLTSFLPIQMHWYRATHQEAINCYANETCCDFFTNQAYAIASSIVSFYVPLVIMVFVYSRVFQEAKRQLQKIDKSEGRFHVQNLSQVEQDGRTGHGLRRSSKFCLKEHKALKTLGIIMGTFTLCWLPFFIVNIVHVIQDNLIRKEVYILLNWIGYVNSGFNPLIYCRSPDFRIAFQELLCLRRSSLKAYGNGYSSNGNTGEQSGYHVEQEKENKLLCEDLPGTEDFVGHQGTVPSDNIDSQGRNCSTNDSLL

These results are taken from patent publication US20090221653A1, “7-(2-amino-1-hydroxy-ethyl)-4-hydroxybenzothiazol-2(3H)-one-derivatives as beta2 adrenoreceptor agonists” (AstraZeneca AB, priority 2005, published 2009).

Experiment [1] deals with T1, recombinant human adrenergic beta 1 receptors (Homo sapiens, UniProt P08588).
T1 construct: purchased Euroscreen
The experiment in a line: Adrenergic β1 selectivity assay, inhibition of [125I]-Iodocyanopindolol binding. As to conditions: membranes, read-out: β1 bind pIC50 (converted).

Experiment [2] deals with T2, recombinant human Dopamine Subtype D2s receptors (Homo sapiens, UniProt P14416).
T2 construct: purchased Perkin Elmer
Briefly: Dopamine D2 selectivity assay, inhibition of [3H]-spiperone binding. Particulars: membranes, [3H]-spiperone 0.16 nM; read-out: D2 bind pIC50 (converted).

A further experiment addresses T3, Adrenergic β2 (Homo sapiens, UniProt P07550).
T3 construct: H292 cells were grown in RPMI; endogenous in cells; host or cells: H292 cells
Briefly: Alternative Adrenergic β2 Mediated cAMP Production in H292 cells (AlphaScreen cAMP detection). It counts as cell-based. As to conditions: test compounds incubated 60 minutes, 300 μM rolipram, read-out: β2 pEC50 (converted).

As to `O=c1[nH]c2c(O)ccc([C@@H](O)CNCCSCCCNCCc3cccc(Cl)c3Cl)c2s1` [Example 38, 7-[(1R)-2-({2-[(3-{[2-(2,3-Dichlorophenyl)ethyl]amino}propyl)thio]ethyl}amino)-1-hydroxyethyl]-4-hydroxy-1,3-benzothiazol-2(3H)-one dihydrochloride], in experiment [1], the IC50 is 79.4 nM. As to `O=c1[nH]c2c(O)ccc([C@@H](O)CNCCOCCCNCCc3cccc(Cl)c3)c2s1` [Example 36, 7-((1R)-2-{[2-(3-{[2-(3-Chlorophenyl)ethyl]amino}propoxy)ethyl]amino}-1-hydroxyethyl)-4-hydroxy-1,3-benzothiazol-2(3H)-one], in experiment [2], the IC50 is 3160 nM. For the compound `CCOc1ccc(CCNCCCSCCNC[C@H](O)c2ccc(O)c3[nH]c(=O)sc23)cc1` [Example 16, 7-[(1R)-2-({2-[(3-{[2-(4-Ethoxyphenyl)ethyl]amino}propyl)thio]ethyl}amino)-1-hydroxyethyl]-4-hydroxy-1,3-benzothiazol-2(3H)-one], the IC50 in experiment [2] is 3980 nM; in experiment [1], 126 nM. Further, at Adrenergic β2, the EC50 was 12.6 nM.
